According to BindingDB's records for PubMed 39145509 (China Pharmaceutical University):

Experiment: Binding affinity to human PP5 extracted from Escherichia coli BL21 using immobilized CDC37 as substrate assessed as increase in PP5 binding to substrate by measuring dissociation constant preincubated with compound for 10 mins followed by CDC37 addition by biolayer interferometric analysis (Rvb = 20.9 nM )

Kd: 0.54 nM
SMILES: N=c1oc2cc(F)cc(F)c2cc1C(N)=S
